Antibody variant affinities, Ab-14 light chain, assay B

Reference: Li et al. 2023, doi:10.1038/s41467-023-39022-2. File: FLAb, binding data.

Target peptide (SARS-CoV-2 spike, HR2 region): PDVDLGDISGINAS

Ab-14 is the parent antibody, in scFv form: VH, then three GGGGS repeats, then VL. The heavy chain is unchanged in all variants.
VH: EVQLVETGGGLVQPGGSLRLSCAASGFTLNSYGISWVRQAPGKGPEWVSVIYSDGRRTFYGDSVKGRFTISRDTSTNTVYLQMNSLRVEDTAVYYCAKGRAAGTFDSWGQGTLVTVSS
VL: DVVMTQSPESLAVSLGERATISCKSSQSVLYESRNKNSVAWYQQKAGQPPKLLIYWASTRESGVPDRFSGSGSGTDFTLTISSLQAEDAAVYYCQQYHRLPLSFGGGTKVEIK

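The parent was found by panning a naive human phage display library on the peptide. This is the validation round: designs drawn from the data on random variants, tested in the same kind of assay. Group labels follow the data file (Ctrl: baseline library sampled from a position-specific scoring matrix, with some repeated check sequences; Rand: our label for a block that the file lists under HC and that is probably the random mutants of the ten best first-round binders; En: ensemble of fine-tuned language models; GP: Gaussian process model; HC: hill climbing; Gen: genetic algorithm; Gibbs: Gibbs sampling; a sequence that several methods proposed may carry one label only). AlphaSeq pools MATa yeast showing the antibodies with MATalpha yeast showing the peptide. The frequency of each diploid, read from paired DNA barcodes, reflects how well the two displayed proteins bind. Read counts were normalised to the haploid input and turned into Kd by a linear fit to BCL2-family pairs of known affinity, for each replicate. The assay was run in six technical replicates.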

Variants are written as CDR1, CDR2 and CDR3 of the light chain (limits as in the source). Parent: KSSQSVLYESRNKNSVA, WASTRES, QQYHRLPLS. Values are apparent Kd, the geometric mean of the replicates that gave a signal; lower means stronger binding. An entry "no signal" has no value in the source: the pair was not observed among the diploids in any replicate. This suggests poor binding but is not conclusive. The authors averaged sequences with at least three values out of six and counted those with two or fewer as poor binders.

The variant KISMLINTTFEVSNNVA, EMVTREK, QQYNRLPLS [En_Gen] gave 310 nM (6 of 6 replicates; controls 0 of 18).
The variant KLSQVTHSESRIKNSIA, EMVTREV, QQYDRLPLS [En_HC] gave 6.9 nM (6 of 6 replicates; controls 0 of 18).
The variant KIGMTLNQLMRKKNNVA, DLVEREK, QQYFRLPLS [En_Gen] gave 16 nM (6 of 6 replicates; controls 0 of 18).
The variant KSSQSVLYESRNKNSVA, WASTREP, QQYHHLPLS [Ctrl] gave 59 nM (6 of 6 replicates; controls 2 of 18).
The variant HVSEMIFAQMKARNSVA, ENNTRED, QQYDRLPLS [En_HC] gave 2.5 nM (6 of 6 replicates; controls 2 of 18).
The variant LISGVWDIGSRNYNSVA, QTSTRES, QQYDRLPLE [En_HC] gave 11 nM (6 of 6 replicates; controls 0 of 18).
The variant KSSGSVQGEDRNSNSVA, HASQRES, QQYHRLPLS [GP_Gibbs] gave 1.8 nM (6 of 6 replicates; controls 0 of 18).
The variant KVSQSEDYQSRNKWSVA, NASTRES, QQYHRLPLS [GP_Gibbs] gave 7.0 nM (6 of 6 replicates; controls 1 of 18).
The variant KQSQSVWMESRNKNSVA, EASTRES, QQYHRLPLS [GP_Gen] gave 1.6 nM (6 of 6 replicates; controls 3 of 18).
The variant KSSPSVLYEDHNKNSVA, NASTRMS, QQYHRLPLS [GP_HC] gave 1.9 nM (6 of 6 replicates; controls 0 of 18).
The variant NLNDSDNQMPQMTSNIA, QTTLRNE, QQYAKLPLS [En_Gibbs] gave 420 pM (6 of 6 replicates; controls 0 of 18).
The variant KLSMSYRLETEEKNSIA, ELVTRMS, QQYHRLPLS [En_HC] gave 23 nM (6 of 6 replicates; controls 0 of 18).
The variant KISQWYWYESRNKNSVA, QASTREV, QQYHRLPLS [GP_Gibbs] gave 1.5 nM (6 of 6 replicates; controls 1 of 18).
The variant KLSQSWLYESRNKNSVA, NASTRES, QQYHRLPLE [GP_Gen] gave 1.3 nM (6 of 6 replicates; controls 4 of 18).
The variant TISTSALYESINKNSVA, ELSTRGS, QQYERLPLS [En_HC] gave 320 nM (2 of 6 replicates; controls 1 of 18).
The variant MVTQMAMSGMTNKRSVA, NAEMREH, QQYHRLPLI [En_Gen] gave 4.0 nM (6 of 6 replicates; controls 1 of 18).
The variant KLQQSTLYMSRNCNSVA, DASQRES, QQYHRLPLS [GP_Gibbs] gave 2.2 nM (6 of 6 replicates; controls 1 of 18).
The variant HSSPSVLYESRLRNSVA, NASHRES, QQVHRLPLS [Rand] gave no signal (0 of 6 replicates; controls 1 of 18).
The variant KFPQSVLYESRNKNSVA, HASTRED, QSYHRLPLS [GP_HC] gave 1.2 nM (6 of 6 replicates; controls 0 of 18).
The variant KWRQSVLYESRNKISVA, WASTRES, QQYVRLPLS [Ctrl] gave no signal (0 of 6 replicates; controls 0 of 18).
The variant KSSQSMLYESRNKNSVA, NASQRES, QQYHRLPLS [GP_Gen] gave 650 pM (6 of 6 replicates; controls 2 of 18).
The variant KVRQSTLYESRNKNSVA, WASVRES, QQYHRLPLS [GP_HC] gave 11 nM (6 of 6 replicates; controls 0 of 18).
The variant TISTMMRYESSLKNAIA, NAQTRES, QQYHRLPLS [En_HC] gave no signal (0 of 6 replicates; controls 1 of 18).
The variant KSSQSVLYESRNQNSVA, QASTRES, QQYHRLPLS [Ctrl] gave 1.4 nM (6 of 6 replicates; controls 1 of 18).
The variant KSSQSVLFASRNHNSVD, DASYRES, QQYHRLPLS [Rand] gave no signal (0 of 6 replicates; controls 0 of 18).
The variant HITMGMYVSGRYKSNIA, QAETRES, QQYDRLPLI [En_Gen] gave 17 nM (6 of 6 replicates; controls 0 of 18).
The variant KLANYMYQGGLVQANVA, EAKELWE, QQYYHLPLA [En_Gibbs] gave 130 nM (1 of 6 replicates; controls 0 of 18).
The variant TISMVMNTLTRHGNNVA, DLAERED, QQYFRLPLS [En_Gen] gave 34 nM (6 of 6 replicates; controls 2 of 18).
The variant TISQITGLFTQNINNVA, EVSTRLN, QQYDRLPLA [En_Gen] gave 16 nM (6 of 6 replicates; controls 0 of 18).
The variant TISQLHNMGQFAINSVA, QASLRNE, QQYDRLPLT [En_Gen] gave 290 nM (6 of 6 replicates; controls 0 of 18).
The variant KSSDSVLYESMNKNNVC, WASTRES, QQYHRLPIS [Ctrl] gave 3.6 µM (2 of 6 replicates; controls 2 of 18).
The variant KIELDLTRYNAGHANIA, HETMKAQ, QQYSRLPLI [En_Gibbs] gave 6.5 nM (6 of 6 replicates; controls 0 of 18).
The variant KFSQMANQFSVSMNAVA, EMSTREN, QQYNRLPLS [En_Gen] gave 7.6 nM (6 of 6 replicates; controls 1 of 18).
The variant KHSQSVLYESNNKNSVA, AAGTAES, QQYHRLPLS [Ctrl] gave 41 nM (6 of 6 replicates; controls 0 of 18).
The variant KMSQSVLYESRNKNSVA, WASTRES, QQYHRLPLS [Ctrl] gave 7.0 nM (6 of 6 replicates; controls 1 of 18).
The variant KVSQSVLYESRVKNSVA, DASTRCS, QQYHRLPLS [GP_HC] gave 850 pM (6 of 6 replicates; controls 3 of 18).
The variant KSSQSDLYESRNKNSVA, HASTRES, QQYHRLPLS [Ctrl] gave 1.2 nM (6 of 6 replicates; controls 0 of 18).
The variant MIAGSLESQEANQAPVA, SATCREP, QQYSRLPLM [En_Gibbs] gave 6.1 nM (6 of 6 replicates; controls 0 of 18).
The variant KVSGFMRGLMMRKDSIA, DNETRQS, QQYDRLPLS [En_Gen] gave 8.0 nM (4 of 6 replicates; controls 0 of 18).
The variant QINVDRLMNYLLNDAIA, GKTLRVD, QQYARLPLS [En_Gibbs] gave 1.5 nM (6 of 6 replicates; controls 0 of 18).
The variant MYSQSVLYESRNKNSVA, WASTRES, QQYHRLPLS [Ctrl] gave 130 nM (1 of 6 replicates; controls 1 of 18).
The variant MLSDLVKMGSRNSNSVA, DNSTRGS, QQYDRLPLS [En_HC] gave 34 nM (5 of 6 replicates; controls 0 of 18).
The variant KVSQEDDYQSRNINSVA, DASLRES, QQYHRLPLS [GP_Gibbs] gave 1.5 nM (6 of 6 replicates; controls 2 of 18).

Top 2 of the variants detected in all replicates, tightest first:

With NLNDSDNQMPQMTSNIA, QTTLRNE, QQYAKLPLS [En_Gibbs] the result was 420 pM (6 of 6 replicates; controls 0 of 18).
With KSSQSMLYESRNKNSVA, NASQRES, QQYHRLPLS [GP_Gen] the result was 650 pM (6 of 6 replicates; controls 2 of 18).

The range of this assay differs from that of the first round, and the authors advise against merging the two. As a blank, each scFv also met three strains without target: over all light chain designs, 4% of these pairings were detected, typically at 430 nM and seldom below 38 nM. The control count says in how many pairings with the empty strains this scFv gave a signal. Of ten entries with the parent sequence, four were seen in most replicates (averages 2.2 nM to 240 nM), three in one and three in none, so single entries are noisy.